From ChEMBL document CHEMBL1136804, “Adenosine kinase inhibitors. 3. Synthesis, SAR, and antiinflammatory activity of a series of l-lyxofuranosyl nucleosides” (J Med Chem, 2003) come the findings set out here.

For the assay, the target named is Adenosine kinase (Homo sapiens, UniProt P55263). Briefly: Inhibition of adenosine kinase.

`C[C@H]1O[C@@H](n2cc(-c3ccccc3)c3c(Nc4ccc(F)cc4)ncnc32)[C@H](O)[C@@H]1O` (single isomer, unassigned) returned a concentration for half-maximal inhibition (IC50) of 1.5 nM.
